# Laboratory results reported in patent US5955508A, “Method for the enhancement of lymphocyte activity against opportunistic microbial pathogens” (priority 1996, dated 1999).
# Key:
# [1] = Plasma d-FEN and d-norFEN levels and half-life in mice; assay type: in vivo; details: mouse; d-FEN p.o. in drinking water; sacrificed 11:00-13:00 h
# Excerpt: Drug Plasma Levels. At the time of sacrifice, serum was collected by cardiac puncture, the plasma separated and frozen, then air expressed to Dr. Bruce Campbell (Servier UK) for analysis of d-FEN and d-norFEN levels.
# Plasma d-FEN and d-norFEN Levels. […] This absence of drug and metabolite detectability may not only be due to the low oral dose of d-FEN employed but to the time of sacrifice. Mice like rats are prandial drinkers during the dark period of the light-dark cycle. The animals were sacrificed between 11:00 and 13:00 h, 4-6 h after the end of the dark period. Since the t1/2s of d-FEN and d-norFEN in the mouse are 4 and 6 h, respectively, by the time of sacrifice the plasma concentrations had likely fallen below the levels of assay detectability.
# [2] = mouse; cited from earlier work
# [3] = oral administration; cited from earlier work
compound,measurement,setting,value
CCN[C@@H](C)Cc1cccc(C(F)(F)F)c1 [d-FEN],plasma d-FEN and d-norFEN levels at sacrifice,[1],Neither d-FEN nor d-norFEN was detected
same,t1/2,[2],4 h
same,bioavailability,[3],approximately 68%
